Data published in patent publication US4997771A, “Method for measuring the BZ-1 receptor binding activity in a test sample or test compound” (Schering Corporation, priority 1987, dated 1991).

Tested on: ^3 H-flunitrazepam binding sites (benzodiazepine receptors BZ-1 and BZ-2) in rat cortex
Experiment: ^3 H-flunitrazepam competition binding, rat cortex
Experimental: Male Spraque-Sawley rats (200 to 250 gms) from Charles River Breeding Laboratories, Mass., were used to obtain brain tissue. Animals were decapitated and their brains removed. Synaptic membranes were obtained following the procedure disclosed in Life Sc., 35, 105 (1984). Cerebral cortex and cerebellum were dissected on ice and homogenized in 20 volumes of ice cold 0.32 M sucrose using a glass homogenizer fitted with a teflon pestle. The homogenates were then centrifuged at 48,000 X g for 10 min, and the resultant P2 pellets were washed twice by re-centrifugation in 50 mM Na/K phosphate buffered saline (pH 7.4). The washed pellets were pooled and then resuspended in the same buffer to a final concentration of 50 mg of original tissue weight/ml. […]
Incubations were carried out at 0° C. for 90 minutes. […] Filter-bound radioactivity was quantified through liquid scintillation counting following overnight solubilization of the receptor-radioligand complex in "Scintosol" scintillation cocktail (Isolab, Inc.). […]

## Fc1ccccc1C1=NCC(=S)N(CC(F)(F)F)c2ccc(Cl)cc21 [quazepam, 7-chloro-1-(2,2,2-trifluorethyl)-5-(2-fluorophenyl)-1,3-dihydro-2H-1,4 benzodiazpeine-2-thione]
  relative proportion of ^3 H-flunitrazepam binding sites, first-named subpopulation: 55%
  relative proportion of ^3 H-flunitrazepam binding sites, second-named subpopulation: 45%
